# scFv variants of Ab-95 (light chain) against a SARS-CoV-2 spike peptide

All variants were tested on one target, the spike HR2 peptide PDVDLGDISGINAS (SARS-CoV-2).

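AAYL52 was designed without a model: most single CDR substitutions and a random sample of double and triple ones. The scFvs were displayed on barcoded MATa yeast, the peptide on MATalpha yeast. Pairs that bind mate more often; barcode pairs of the diploids are counted by sequencing. A regression on co-assayed BCL2-family reference pairs converts the normalised counts of each replicate to an apparent Kd. The assay was run in three technical replicates.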

Parent: Ab-95, a human scFv built as VH, three GGGGS repeats, VL. Only the CDRs of the light chain vary.
VH: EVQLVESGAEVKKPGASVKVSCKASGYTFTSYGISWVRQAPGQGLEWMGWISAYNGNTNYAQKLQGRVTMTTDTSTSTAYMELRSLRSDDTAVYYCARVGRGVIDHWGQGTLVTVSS
VL: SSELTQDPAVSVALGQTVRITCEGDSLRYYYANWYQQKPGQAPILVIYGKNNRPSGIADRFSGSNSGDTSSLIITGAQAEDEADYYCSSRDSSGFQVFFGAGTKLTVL

Variants are written as CDR1, CDR2 and CDR3 of the light chain (limits as in the source). Parent: EGDSLRYYYAN, GKNNRPS, SSRDSSGFQVF. The read-out is the apparent dissociation constant on a log10 scale (nM): the lower, the stronger. Where no diploid with the target was found in that replicate, the entry reads "nd": below detection, most likely a poor binder, though not proof of it.

CDR-L1 | CDR-L2 | CDR-L3 | log10 Kd, replicates | empty controls
EGDSLRYYYAN | GKNFRPS | SSRGSFGFQVF | 2.04 1.80 1.74 | 3 of 9 (3.83)
EGDSLRYYYAN | YKNNRPS | SSTDSSGFQCF | 3.56 nd nd | 1 of 9 (2.65)
EGDSLRYYYAN | GKFNRPS | SSRCSMGFQVF | nd 3.88 nd | 0 of 9
EKDSLVYYYAN | GKFNRPS | SSRDSSGFQVF | 4.12 3.01 3.79 | 2 of 9 (4.16)
EGDSLRYYYAN | GKYNRPS | SSWDPSGFQVF | nd nd nd | 2 of 9 (3.33)
EGDSLRYNYAN | GKNNRPS | CSRDSNGFQVF | 1.16 1.21 0.79 | 3 of 9 (4.93)
EGDYLRYYYAN | GKNNRPC | SSRDSSGFQVF | 2.65 2.82 3.13 | 3 of 9 (3.39)
EGDSLRYYYAN | GKNNHPK | SSRDSSGFQSF | 3.39 4.28 nd | 3 of 9 (4.26)
LGDSLRYYYAN | GKNNRPS | SSRDSQGFPVF | 4.41 3.14 2.52 | 2 of 9 (3.66)
EGDSLRYYYAN | GANNRPS | SCRESSGFQVF | 2.53 2.82 2.16 | 3 of 9 (4.70)
EGDSLRYYYAN | GFNNRPT | SSRDSSFFQVF | nd 4.42 nd | 0 of 9
PGDSLRYYYAN | GKCNRYS | SSRDSSGFQVF | 5.11 nd nd | 4 of 9 (3.47)
QGDSLRYYTAN | GKNNRPS | SSRDSNGFQVF | 2.19 1.87 1.83 | 4 of 9 (3.80)
EGDSLRYYIIN | GKNNRPS | SSRDSSGFQVF | 4.81 4.51 3.76 | 3 of 9 (4.27)
EGDSLRYRYAN | GKNNMPS | SSRDSSGFQVF | 2.11 2.65 2.53 | 3 of 9 (3.92)
EGSSWRYYYAN | GKNNRPS | SSRDSSGFMVF | nd 3.97 nd | 1 of 9 (3.95)
EGDSLRYYYEN | GKNNRPS | VSRDSIGFQVF | 5.16 nd nd | 1 of 9 (3.33)
EGDSLRYYYAN | RKNNRPP | STRDSSGFQVF | nd nd nd | 3 of 9 (3.15)
EGDILRVYYAN | GKNNRPS | SSRDSSGFQVM | 4.20 4.92 3.88 | 3 of 9 (4.64)
EGDDLWYYYAN | GKNNRPS | SSRRSSGFQVF | nd nd nd | 2 of 9 (4.11)
EGDHLRYYYAN | GKNNRPS | SSRTSSGFMVF | 2.76 2.75 4.35 | 3 of 9 (3.41)
EGDSLRYYYAN | RKCNRPS | SSRDSSSFQVF | 4.29 4.43 nd | 4 of 9 (4.12)
EGDSHRWYYAN | GKNNDPS | SSRDSSGFQVF | nd nd 2.44 | 0 of 9
EGDSLRYYYAN | GKNNRMK | SSRDSSLFQVF | 3.27 4.77 4.28 | 4 of 9 (3.69)
EGDTLRYYEAN | GKNNLPS | SSRDSSGFQVF | 2.90 3.13 2.72 | 4 of 9 (4.44)
EGDSLRYYYAN | GKNQQPY | SSRDSSGFQVF | 2.71 3.01 2.45 | 3 of 9 (3.65)
EGDSLRYYYAN | GKNERAS | SSRDSRGFQVF | 2.38 2.20 1.77 | 4 of 9 (3.82)
EGDSLRCYYAD | GKNNRPS | ISRDSSGFQVF | nd 3.91 nd | 0 of 9
EGDSLRYYCAN | GKNNRPS | SSFDSSGFQVF | 3.91 2.98 4.03 | 0 of 9
EGDSLRYAYAN | GKNNLPS | SSRDSSGFQVC | 1.99 1.76 1.71 | 6 of 9 (4.03)
EGDSCRYYYAN | GKANRPS | SSRDSSGFQWF | 2.73 nd nd | 2 of 9 (4.22)
EGDSLRYYYAN | DKNNRPS | SSRMSSGFQVF | 4.58 nd nd | 1 of 9 (5.38)

Extract of 4 entries:

{"CDR-L1": "EGDSLRYYIIN", "CDR-L2": "GKNNRPS", "CDR-L3": "SSRDSSGFQVF", "log10 Kd, replicates": "4.81 4.51 3.76", "empty controls": "3 of 9 (4.27)"}
{"CDR-L1": "EGDHLRYYYAN", "CDR-L2": "GKNNRPS", "CDR-L3": "SSRTSSGFMVF", "log10 Kd, replicates": "2.76 2.75 4.35", "empty controls": "3 of 9 (3.41)"}
{"CDR-L1": "EGDSLRYYYAN", "CDR-L2": "GKNERAS", "CDR-L3": "SSRDSRGFQVF", "log10 Kd, replicates": "2.38 2.20 1.77", "empty controls": "4 of 9 (3.82)"}
{"CDR-L1": "EGDSHRWYYAN", "CDR-L2": "GKNNDPS", "CDR-L3": "SSRDSSGFQVF", "log10 Kd, replicates": "nd nd 2.44", "empty controls": "0 of 9"}

Empty control strains, which show no peptide, gave a signal in 28% of pairings with library AAYL52; the median was 3.91 and 95% of these signals were weaker than 2.90. No background was subtracted. Also given: how often the same scFv was detected with the empty control strains, with their mean in brackets. For reference, the parent read 2.31 as the reference entry and 2.25 as a member of this library.

Values reported by Engelhart et al. 2022, doi:10.1038/s41597-022-01779-4 (FLAb copy).